Data on two substances can be found in patent US11633495B2, “Compounds and compositions for immunotherapy” (priority 2014, dated 2023).

Series [1] deals with subcutaneous patient derived gastric tumor. The series can be described thus: Therapeutic efficacy (survival) in PDX gastric tumor model. The format is in vivo, BALB/c nu/nu nude mice. The note with it: 10 mg/kg intravenously, weekly for a period of 45 days; mice bearing subcutaneous patient derived gastric tumor; FIG. 4C. The source says:
(§1) For development of patient-derived gastric carcinoma xenograft (PDX) mouse models, female Balb/c nude mice (from SLAC, Shanghai, China) of 6-8 weeks old were used for tumor fragment implantation. Animals were fed with normal nude mice diet and housed in SPF animal facility in accordance with the Guide for Care and Use of Laboratory Animals and regulations of the Institutional Animal Care and Use Committee. Patent STO #69 gastric tumor fragments of about 15-30 mm^3 in size were implanted (s.c.) into right flanks of Balb/c nude mice.
(§2) Drugs were administered by i.v. route with 5-20 mg/kg of antibody or 20 mg/kg of Tarceva or reference drug, QWKx3. Tumors were measured once a week by caliper to determine its subcutaneous growth. Tumors were measured twice a week in two dimensions with calipers. Tumor volume was calculated using following formula: tumor volume=(length×width2)×0.5. Average tumor volumes or body weights were plotted using graph program Prism 5 (GraphPad). An endpoint for efficacy study was set at 30-45 days post-first treatment or when a tumor size reached above 2000 mm3, whichever came first. If a mouse lose more than 20% of body weight or is very sick and cannot get to adequate food or water, it will be removed from the study and euthanized. Tumors were collected from mice at the end point, half frozen in LN2 and half fixed in formalin for preparing FFPE tissues.

Series [2] can be described thus: Body weight variations during and after therapy, PDX gastric tumor model. As to conditions: 10 mg/kg intravenously, weekly for 45 days, FIG. 4B. Format: in vivo, BALB/c nu/nu nude mice.
Description: as §1, §2

With Trastuzumab MC-vc-TLRL, in series [1], the “Survival curves of treatment and control groups” value is reported as “substantial prolongation”. The “Body weight variations of the mice during and after therapy” value in series [2] is on record as “No detectable weight loss”.

Regarding “Trastuzumab: humanized monoclonal antibody that acts on human epidermal growth factor receptor extracellular domain of Her2”, the “Survival curves of treatment and control groups” value in series [1] is recorded as “substantial prolongation”. Further, the “Body weight variations of the mice during and after therapy” value in series [2] is on record as “No detectable weight loss”.
